Test results reported in ChEMBL document CHEMBL5335866, “Structure-Based Optimization of Selective and Brain Penetrant CK1δ Inhibitors for the Treatment of Circadian Disruptions” (ACS Med Chem Lett, 2024).
pIC50: −log10 of the molar value.

Chains of the proteins cited; added tags and fusions are not shown. Lines headed by an entry give the natural chain unless they say otherwise; changes in a name come on top.
UniProt P48730: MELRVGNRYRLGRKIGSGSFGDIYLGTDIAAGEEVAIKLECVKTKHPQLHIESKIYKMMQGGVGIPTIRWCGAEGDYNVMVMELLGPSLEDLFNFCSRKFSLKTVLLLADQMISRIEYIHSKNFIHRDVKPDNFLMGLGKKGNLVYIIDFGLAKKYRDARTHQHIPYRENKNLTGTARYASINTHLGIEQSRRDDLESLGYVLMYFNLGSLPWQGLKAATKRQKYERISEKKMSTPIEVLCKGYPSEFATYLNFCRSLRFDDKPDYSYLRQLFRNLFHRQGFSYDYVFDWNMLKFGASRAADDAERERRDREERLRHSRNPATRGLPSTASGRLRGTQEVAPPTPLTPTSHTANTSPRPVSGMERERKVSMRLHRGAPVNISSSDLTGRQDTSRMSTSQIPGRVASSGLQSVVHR

Target: Casein kinase I isoform delta (Homo sapiens, UniProt P48730)
Assay: Displacement of kinase tracer 8 from NanoLuc-tagged CK1 delta (unknown origin) transfected in CHO cells by BRET assay
Assay type: cell-based

- pIC50: 7.21
SMILES: CC1(C)Cn2nc(-c3ccc(F)cn3)c(-c3ccnc4[nH]ncc34)c2CO1
